The chains behind the UniProt entries cited, without tags or fusion partners.
UniProt Q9MYX0, whole entry: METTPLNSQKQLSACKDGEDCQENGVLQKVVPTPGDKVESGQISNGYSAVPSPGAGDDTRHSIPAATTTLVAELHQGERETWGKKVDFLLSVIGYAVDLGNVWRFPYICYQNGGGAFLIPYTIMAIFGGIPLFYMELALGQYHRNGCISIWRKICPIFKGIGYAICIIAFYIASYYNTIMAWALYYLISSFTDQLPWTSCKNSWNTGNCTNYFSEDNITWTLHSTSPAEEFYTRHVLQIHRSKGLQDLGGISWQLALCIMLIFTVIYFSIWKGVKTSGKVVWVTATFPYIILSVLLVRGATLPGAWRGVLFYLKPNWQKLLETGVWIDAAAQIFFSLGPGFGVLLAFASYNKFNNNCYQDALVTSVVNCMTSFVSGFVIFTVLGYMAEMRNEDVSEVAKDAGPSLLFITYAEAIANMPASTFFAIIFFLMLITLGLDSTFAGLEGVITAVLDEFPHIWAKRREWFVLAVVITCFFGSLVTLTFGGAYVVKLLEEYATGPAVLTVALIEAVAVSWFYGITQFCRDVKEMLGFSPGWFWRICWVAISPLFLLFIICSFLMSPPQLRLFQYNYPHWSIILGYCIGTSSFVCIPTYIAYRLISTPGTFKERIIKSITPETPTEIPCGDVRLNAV

According to patent US6677338B2, “Serotonin transport inhibitors” (President and Fellows of Harvard College, priority 1997, dated 2004):

Target: Serotonin transporter (SERT) (Macaca mulatta, UniProt Q9MYX0)
Experiment: (3H)citalopram competition binding in monkey striatum homogenates
Details: fold selectivity for serotonin over dopamine transporter

With `COC(=O)C1C(c2ccc(Cl)c(Cl)c2)CC2CCC1N2C` (stereo not shown) the SERT/DAT Selectivity was 0.4.
